# Results as given in paper PMC6269003, “Two New Coumarins from Micromelum falcatum with Cytotoxicity and Brine Shrimp Larvae Toxicity” (Molecules, 2012).
# Test system: brine shrimp larvae
# Conditions: 96 well plates, 24 h incubation
# Description: According to the method described by Wanyoike, brine shrimp eggs (Ocean Star International, Inc., USA) were hatched in a large beaker containing natural sea water (South China Sea) and they were cultured at room temperature for 48 h. With the help of a light source, the larvae grouped together on one side of the vessel and were easily collected for the assay. […] Each test was processed in triplicate with approximate ten larvae. Brine shrimps were counted under a magnifying glass after 24 h of incubation and maintaining the 96 well plates under illumination. The controls were prepared in the same manner except that the test samples were omitted.
substance,measurement,value
microfalcatin isovalerate [Compound 14],LD50 (brine shrimp),257.4 µg/mL
